Data from paper PMC10305115, “Development of a Minimalistic Physiologically Based Pharmacokinetic (mPBPK) Model for the Preclinical Development of Spectinamide Antibiotics” (Pharmaceutics, 2023).
Read-outs that look alike come from different tables or passages of the source.

Tests used:
in vitro [1] = conditions: Sprague-Dawley, rat, whole blood
[2] = healthy rats, plasma, IV SD 10 mg/kg
in vitro [3] = conditions: whole blood
[4] = Minimalistic PBPK model, mouse (fitting and simulation); conditions: healthy mice; for AUCinf Fold Difference (predicted vs observed): plasma

SMILES: CN[C@@H]1[C@H](O)[C@H](NC)[C@H]2O[C@]3(O)[C@H](O[C@@H]2[C@H]1O)O[C@H](C)C[C@H]3NC(=O)Cc1ccc(O)cn1 [Spectinamide 1810, 2-(5-hydroxypyridin-2-yl)-N-((2R,4R,4aS,5aR,6S,7S,8R,9S,9aR,10aS)-4a,7,9-trihydroxy-2-methyl-6,8-bis(methylamino)decahydro-2H-benzo[b]pyrano [2,3-e] [1,4]dioxin-4-yl)acetamide]
- blood plasma ratio at 1 h (in vitro [1]): 0.785
- AUCinf Fold Difference (predicted vs observed) [2]: 1.61
- blood plasma ratio at 1 h (in vitro [3]; BALB/c (mouse), Sprague-Dawley (rat), mouse and rat): 0.5 to 0.8
- blood plasma ratio at 1 h (in vitro [3]; BALB/c, mouse): 0.604
- AUCinf Liver Fold Difference ([4]; IV QD5 10 mg/kg): 1.37
- AUCinf Liver Fold Difference ([4]; IV SD 10 mg/kg): 1.25
- AUCinf Lung Fold Difference ([4]; IV QD5 10 mg/kg): 1.14
- AUCinf Lung Fold Difference ([4]; IV SD 10 mg/kg): 1.48
- AUCinf Fold Difference (predicted vs observed) ([4]; IV QD5 10 mg/kg): 1.23
- AUCinf Fold Difference (predicted vs observed) ([4]; IV SD 10 mg/kg): 1.04
- AUCinf Fold Difference (predicted vs observed) ([4]; SC QD5 50 mg/kg): 1.63
- AUCinf Fold Difference (predicted vs observed) ([4]; SC QD5 200 mg/kg): 1.65
- AUCinf Fold Difference (predicted vs observed) ([4]; SC SD 46 mg/kg): 1.05
- AUCinf Fold Difference (predicted vs observed) ([4]; SC SD 50 mg/kg): 1.70
- AUCinf Fold Difference (predicted vs observed) ([4]; SC SD 200 mg/kg): 1.67
- AUCinf Spleen Fold Difference ([4]; IV QD5 10 mg/kg): 1.19
- AUCinf Spleen Fold Difference ([4]; IV SD 10 mg/kg): 1.03
